The values that follow come from publication PMC10892818, “An Antiherpesviral Host-Directed Strategy Based on CDK7 Covalently Binding Drugs: Target-Selective, Picomolar-Dose, Cross-Virus Reactivity” (Pharmaceutics, 2024).

One experiment has as its system VZV Oka-GFP. To be noted: 96 well format.
In a further experiment the test system is rKSHV.219-GFP/RFP. The experiment can be described thus: KSHV-GFP/RFP reporter assay in iSLK.219 cells. (In a reporter assay the amount or activity of a reporter protein is the signal.)

Regarding `Nc1nc(O)c2ncn(COC(CO)CO)c2n1` [GCV, ganciclovir], the “SI (VZV-GFP system)” value in the experiment on VZV Oka-GFP is above 34. In addition, the “SI (KSHV-GFP/RFP system)” value with rKSHV.219-GFP/RFP (0.05 μg/mL dox) and in the experiment on rKSHV.219-GFP/RFP (0.5 μg/mL dox) was above 460 each time.
